The subject of the data set is patients with hemiplegia attributed to cerebrovascular disease (stroke), onset of RSD (shoulder-hand syndrome). More on the design: species or system humans. The following applies: in vivo. The source says:
Test subjects were 33 patients with hemiplegia attributed to cerebrovascular disease (stroke) at Brunnstrom stage III or lower in either the upper limb or a finger on admission. Patients already developing RSD (shoulder-hand syndrome) on admission and patients with pain in the shoulder joint or swollen paralyzed limbs were excluded from the test. To 12 of these 33 test subjects, 20 units of elcatonin (Elcitonin Injection 20S; Asahi-Kasei Pharma; hereinafter, referred to as EL) were intramuscularly administered once a week immediately after admission (EL administration group). On the other hand, 21 test subjects were classified into a rehabilitation alone group (control group) and compared with the EL administration group. Physical therapy and therapeutic exercise, occupational therapy, and the management of the paralyzed limbs were performed thoroughly in all the cases. […] EL administration was initiated 11 to 59 days after an attack of stroke (25.8 days on average) and continued until 5 months after the attack of stroke. The same observation period was applied to the control group. […]
Activities of daily living (ADL) were evaluated on the basis of the Barthel Index (BI) and the range of motion (ROM) of shoulder joint. […]

With “1-butyric acid-7-(L-2-aminobutyric acid)-26-L-aspartic acid-27-L-valine-29-L-alanine-calcitonin [elcatonin]”, the “Side effects during the test period” value is on record as “no significant or serious side effect was observed”.

(Values after patent US7919460B2, “Method for prophylaxis of reflex sympathetic dystrophy after stroke” (Asahi Kasei Pharma Corporation, priority 2006, dated 2011).)
